We go through two compounds from PubChem BioAssay AID1053197 (The Scripps Research Institute Molecular Screening Center, 2014).

The chains behind the UniProt entries cited, without tags or fusion partners.
UniProt Q9HAT2, whole entry: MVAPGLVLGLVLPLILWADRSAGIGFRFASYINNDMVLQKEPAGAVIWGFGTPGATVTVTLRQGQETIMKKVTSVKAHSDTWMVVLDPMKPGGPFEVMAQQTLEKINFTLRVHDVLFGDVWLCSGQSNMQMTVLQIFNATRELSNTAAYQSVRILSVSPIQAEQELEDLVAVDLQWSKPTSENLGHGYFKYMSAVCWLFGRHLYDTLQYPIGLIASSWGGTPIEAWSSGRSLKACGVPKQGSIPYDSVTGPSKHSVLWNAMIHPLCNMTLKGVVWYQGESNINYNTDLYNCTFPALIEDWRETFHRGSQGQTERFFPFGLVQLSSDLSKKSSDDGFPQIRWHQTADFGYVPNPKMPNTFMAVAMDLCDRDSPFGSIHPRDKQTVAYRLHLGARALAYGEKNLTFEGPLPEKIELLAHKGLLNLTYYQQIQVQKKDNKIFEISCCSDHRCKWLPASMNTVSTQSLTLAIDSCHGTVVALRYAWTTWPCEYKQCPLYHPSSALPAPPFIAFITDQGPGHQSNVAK

Structures are written as SMILES. The entries are a selection whose mix differs from that of the whole data set. Activity calls are given as the source filed them.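 How the source made its calls: active means inhibition above a cutoff: mean of compounds within the control limits plus 3 SD of those (cut at about 17% in these data); inactive means the rest.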

The target of the experiment is Sialate O-acetylesterase (Homo sapiens) (UniProt Q9HAT2). The experiment is described as follows: human SIAE inhibitors, primary screen, biochemical, fluorescence polarization, FP-Rh probe, 1536-well HTS (AID 1053197).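 Further: 0% = plate median of compound wells and 100% = probe without SIAE protein.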 As to conditions: SIAE FP-Rh probe binding, at 9.66 µM, hits give high values.
One may read the inhibition as the relative decrease from the control value, in per cent. Consider `CCC(=O)N(c1ccccc1)C1(COC)CCN(CCc2cccs2)CC1`, for which the inhibition is inactive: -3.16%.
With `CCC(=O)N(c1ccccc1)C1(COC)CCN(CCn2nnn(CC)c2=O)CC1`, the inhibition is inactive: 3.38%.
